From patent US20180369195A1, “COMBINATION THERAPY FOR TREATMENT OF MELANOMA” (The Regents of the University of California, priority 2015, published 2018)

The chains behind the UniProt entries cited, without tags or fusion partners.
UniProt P15056, whole entry V600E: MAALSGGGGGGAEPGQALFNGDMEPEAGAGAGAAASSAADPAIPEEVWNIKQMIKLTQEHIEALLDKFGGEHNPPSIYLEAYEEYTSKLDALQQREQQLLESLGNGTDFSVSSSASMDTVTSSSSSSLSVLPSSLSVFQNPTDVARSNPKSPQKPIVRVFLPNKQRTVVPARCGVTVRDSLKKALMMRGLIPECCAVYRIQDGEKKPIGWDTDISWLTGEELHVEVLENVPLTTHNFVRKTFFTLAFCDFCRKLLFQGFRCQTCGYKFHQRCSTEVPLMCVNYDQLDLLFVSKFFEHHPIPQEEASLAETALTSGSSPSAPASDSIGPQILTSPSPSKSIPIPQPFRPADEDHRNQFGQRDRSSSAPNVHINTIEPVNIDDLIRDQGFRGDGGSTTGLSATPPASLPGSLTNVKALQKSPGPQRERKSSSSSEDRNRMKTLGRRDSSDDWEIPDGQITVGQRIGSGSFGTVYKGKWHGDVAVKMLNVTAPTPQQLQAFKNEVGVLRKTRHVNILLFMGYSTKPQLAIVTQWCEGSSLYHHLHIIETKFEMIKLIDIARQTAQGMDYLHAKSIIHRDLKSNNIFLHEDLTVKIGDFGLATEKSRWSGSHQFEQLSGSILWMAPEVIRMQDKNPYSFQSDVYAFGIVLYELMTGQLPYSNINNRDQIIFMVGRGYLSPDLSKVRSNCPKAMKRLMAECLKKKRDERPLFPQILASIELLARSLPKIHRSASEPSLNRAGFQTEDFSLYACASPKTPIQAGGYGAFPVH
UniProt P15056, whole entry: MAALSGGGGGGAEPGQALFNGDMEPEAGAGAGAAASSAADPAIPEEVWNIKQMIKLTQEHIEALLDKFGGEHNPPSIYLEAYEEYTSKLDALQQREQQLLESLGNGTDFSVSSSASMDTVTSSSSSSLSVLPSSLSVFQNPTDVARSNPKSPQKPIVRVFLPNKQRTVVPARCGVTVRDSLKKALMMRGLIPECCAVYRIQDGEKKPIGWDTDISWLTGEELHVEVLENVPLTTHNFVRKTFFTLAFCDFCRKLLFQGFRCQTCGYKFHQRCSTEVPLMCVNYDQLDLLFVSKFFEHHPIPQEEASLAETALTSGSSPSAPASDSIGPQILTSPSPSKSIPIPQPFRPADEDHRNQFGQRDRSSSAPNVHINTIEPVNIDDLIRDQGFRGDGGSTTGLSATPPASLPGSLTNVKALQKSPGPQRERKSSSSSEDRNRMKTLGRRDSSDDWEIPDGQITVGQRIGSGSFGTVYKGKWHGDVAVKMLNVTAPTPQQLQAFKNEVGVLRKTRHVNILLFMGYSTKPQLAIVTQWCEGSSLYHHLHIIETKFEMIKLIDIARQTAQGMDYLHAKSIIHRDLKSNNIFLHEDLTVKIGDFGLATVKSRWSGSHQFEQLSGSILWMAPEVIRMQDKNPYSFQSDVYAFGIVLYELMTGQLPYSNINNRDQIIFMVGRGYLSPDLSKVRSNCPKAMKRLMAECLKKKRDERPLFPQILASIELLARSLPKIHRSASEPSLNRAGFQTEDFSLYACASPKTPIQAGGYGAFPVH

Experiments:
[1] = target: T1, BRAF-V600E (Homo sapiens, UniProt P15056, V600E); test: BRAF kinase assay on BRAF immunoprecipitated from pretreated G-361 cells; format: biochemical; conditions: G-361 cells treated 48 hours; 200 μM or 400 μM I3C, 10 μM Vemurafenib
T1 construct: BRAF-V600E was immunoprecipitated from untreated G-361 cells and incubated in vitro; endogenous in cells; host or cells: G-361 human melanoma cells (ATCC)
Description: (§1) BRAF was pulled down from the cell lysates using anti-BRAF antibodies bound to protein G-coupled Sepharose beads, while IgG was used as a negative control. Post-immunoprecipitation supernatants were probed with anti BRAF antibody by western blots to determine pull-down efficiency. […] The reactions were terminated by adding 4× sodium dodecyl sulfate (SDS) sample buffer and boiling the mixture at 100° C. for 5 min. The samples were then electrophoresed, immunoblotted and probed for relative protein levels of phosphorylated MEK and total MEK to assess the kinase activity of the immunoprecipitated BRAF.

[2] = target: T2, wild type BRAF (Homo sapiens, UniProt P15056); test: In vitro BRAF kinase assay, in-vitro treated wild type BRAF from SK-MEL-2 cells; format: biochemical; conditions: pre-incubated 2 hours; 200 μM or 400 μM I3C, 10 μM Vemurafenib
T2 construct: Wild type BRAF was immunoprecipitated from SK-MEL-2 melanoma cells; endogenous in cells; host or cells: SK-MEL-2 human melanoma cells (ATCC)
Description: as §1

Vemurafenib [reference compound] was tested, and the “BRAF-V600E enzymatic activity (phosphorylated MEK) after cellular treatment” value [1] was “significantly inhibited BRAF-V600E enzymatic activity” and the “wild type BRAF enzymatic activity, direct in vitro incubation” value [2] was “no effect”.
